This note sets out measurements from BindingDB's records for doi:10.1124/jpet.102.039867 (Institut De Recherches Servier, 2002).

By UniProt entry, the sequences of proteins in these tests, tags left out.
UniProt P14416, whole entry: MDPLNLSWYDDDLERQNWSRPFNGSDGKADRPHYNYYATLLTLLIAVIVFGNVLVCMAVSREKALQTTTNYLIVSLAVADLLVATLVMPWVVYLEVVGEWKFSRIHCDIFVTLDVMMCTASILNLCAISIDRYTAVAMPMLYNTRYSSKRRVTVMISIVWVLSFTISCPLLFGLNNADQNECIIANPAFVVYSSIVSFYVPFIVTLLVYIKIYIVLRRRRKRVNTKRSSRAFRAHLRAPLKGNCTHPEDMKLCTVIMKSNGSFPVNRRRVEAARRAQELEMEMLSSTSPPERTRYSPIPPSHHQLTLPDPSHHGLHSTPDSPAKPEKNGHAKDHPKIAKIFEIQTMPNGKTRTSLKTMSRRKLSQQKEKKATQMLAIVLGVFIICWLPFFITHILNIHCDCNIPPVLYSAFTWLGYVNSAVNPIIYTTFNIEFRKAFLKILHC
UniProt P18089, whole entry: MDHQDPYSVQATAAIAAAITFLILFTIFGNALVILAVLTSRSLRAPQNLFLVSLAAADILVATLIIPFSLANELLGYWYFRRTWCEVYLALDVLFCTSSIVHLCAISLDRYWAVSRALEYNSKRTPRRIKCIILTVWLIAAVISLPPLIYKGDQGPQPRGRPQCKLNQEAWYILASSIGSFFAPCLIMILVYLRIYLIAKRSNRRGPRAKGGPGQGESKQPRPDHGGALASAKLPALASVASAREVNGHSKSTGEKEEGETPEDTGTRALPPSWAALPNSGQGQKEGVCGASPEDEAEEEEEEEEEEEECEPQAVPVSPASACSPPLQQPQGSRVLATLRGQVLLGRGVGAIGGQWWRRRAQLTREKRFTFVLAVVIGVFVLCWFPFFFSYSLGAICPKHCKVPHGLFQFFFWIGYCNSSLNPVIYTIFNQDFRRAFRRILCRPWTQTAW
UniProt P25100, whole entry: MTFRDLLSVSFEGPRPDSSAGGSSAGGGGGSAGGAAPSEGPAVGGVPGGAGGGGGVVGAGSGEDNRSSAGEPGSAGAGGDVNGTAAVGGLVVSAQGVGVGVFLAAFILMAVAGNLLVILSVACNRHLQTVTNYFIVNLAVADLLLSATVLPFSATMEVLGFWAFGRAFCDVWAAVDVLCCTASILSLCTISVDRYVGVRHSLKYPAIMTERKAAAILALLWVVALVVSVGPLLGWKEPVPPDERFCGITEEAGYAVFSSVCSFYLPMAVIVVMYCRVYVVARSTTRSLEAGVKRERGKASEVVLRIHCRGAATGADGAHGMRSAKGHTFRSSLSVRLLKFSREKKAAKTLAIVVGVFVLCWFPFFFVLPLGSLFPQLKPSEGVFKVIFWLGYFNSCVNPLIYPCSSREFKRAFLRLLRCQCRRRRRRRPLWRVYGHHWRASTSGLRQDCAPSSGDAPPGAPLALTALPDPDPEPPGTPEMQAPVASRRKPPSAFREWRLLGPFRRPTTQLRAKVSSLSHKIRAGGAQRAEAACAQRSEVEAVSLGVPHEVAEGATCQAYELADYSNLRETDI
UniProt P21917, whole entry: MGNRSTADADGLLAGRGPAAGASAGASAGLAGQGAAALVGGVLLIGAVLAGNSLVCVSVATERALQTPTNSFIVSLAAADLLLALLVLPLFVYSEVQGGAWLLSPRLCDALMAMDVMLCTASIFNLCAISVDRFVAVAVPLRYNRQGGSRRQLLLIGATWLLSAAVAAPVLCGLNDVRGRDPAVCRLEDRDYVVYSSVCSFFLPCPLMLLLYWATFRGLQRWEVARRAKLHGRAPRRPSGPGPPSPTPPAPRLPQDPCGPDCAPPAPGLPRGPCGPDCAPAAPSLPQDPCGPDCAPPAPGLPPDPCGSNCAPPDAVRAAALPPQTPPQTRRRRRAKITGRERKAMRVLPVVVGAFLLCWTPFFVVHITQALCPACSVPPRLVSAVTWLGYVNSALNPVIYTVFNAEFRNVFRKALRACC

One test addresses D(2) dopamine receptor (Homo sapiens, UniProt P14416).
Test [1] deals with Alpha-2B adrenergic receptor (Homo sapiens, UniProt P18089).
Test [2] concerns the target Alpha-1D adrenergic receptor (Homo sapiens, UniProt P25100).
In another test the target is D(4) dopamine receptor (Homo sapiens, UniProt P21917).

`Oc1ccc2[nH]cc(CCCCN3CC=C(c4ccccc4)CC3)c2c1`: the Ki (usually the dissociation constant of the complex between target and ligand, obtained from inhibition or displacement) at D(2) dopamine receptor came out at 4.37 nM; in test [1], 4.57 nM.
Compound `CCN(CC)C(=O)N[C@H]1C[C@@H]2c3cccc4[nH]cc(c34)C[C@H]2N(C)C1` returned a Ki in test [1] of 0.45 nM.
In turn, `CCCN(CCC)CCc1cccc2c1CC(=O)N2` had an inhibition constant (Ki) in test [1] of 759 nM.
For the compound `CN1CCc2cccc3c2[C@H]1Cc1ccc(O)c(O)c1-3` [APOKYN], the Ki in test [1] worked out at 66.1 nM; in test [2], 64.6 nM.
For the compound `c1cnc(N2CCN(Cc3ccc4c(c3)OCO4)CC2)nc1` [NSC_4850], on D(4) dopamine receptor, the inhibition constant Ki is 302 nM.
`CCCN1CCC[C@@H]2Cc3n[nH]cc3C[C@H]21` [NSC_54562] came in with an inhibition constant Ki in test [1] of 2510 nM.
In test [1], `CCCNC1CCc2nc(N)sc2C1` (centres undefined) [Pramipexole] returned an inhibition constant Ki of 631 nM.
